Consider 1 compound from patent US20090170801A1 (Beijing Century Biocom Pharmaceutical Technology Co. Ltd., priority 2006, published 2009).

The subject of the assay is decapitated mice. As to the kind of experiment: Breathing time, breathing frequency, brain index and brain water content in decapitated mice. In kind it is in vivo, ICR mice. The following applies: 2 mg/kg tail i.v. The procedure:
ICR mice (equally divided between male and female) were divided randomly in a blank control group, a positive control group, and three kelp fucoidan sample groups. […] The positive control group was administrated nimodipine (2 mg/kg) by tail intravenous injection. The model group was administrated normal salt. At 15 minutes after administration, the mice were decapitated by a pair of scissors. The mouth breathing time, breathing frequency and brain water content were recorded and compared with other groups. Whole brains were collected. After the wet weight was obtained, they were dried in an oven at 100° C. for 24 hours. The average value was taken to calculate brain water content: brain water content (%)=[…]. Brain index: brain index=brain wet weight (g)/body weight (g)×100%.

The mark [1] stands for this setting: decapitated 15 min after administration.

For the compound `COCCOC(=O)C1=C(C)NC(C)=C(C(=O)OC(C)C)C1c1cccc([N+](=O)[O-])c1` (stereo not drawn) [Nimodipine, nimodipine], under setting [1], the Breathing frequency worked out at 17.0 ± 3.2 times and the Breathing time is 23.8 ± 3.2 s. This compound came in with a Brain index (brain wet weight/body weight) of 1.40 ± 0.14 %.
